Experimental data: ChEMBL document CHEMBL1148673, “Peptidomimetic C5a receptor antagonists with hydrophobic substitutions at the C-terminus: increased receptor specificity and in vivo activity” (Bioorg Med Chem Lett, 2006)

Species on record: Homo sapiens
Assay: Stability in human plasma after 1 hr at 37 degC

CC(C)CC[C@@H](NC(=O)[C@@H]1CCCN1C(=O)[C@H](CCCN)NC(=O)[C@H](Cc1ccccc1)NC(=O)[C@@H]1CC(=O)NC(=O)N1)C(=O)N[C@@H](Cc1ccc(F)cc1)C(=O)N[C@@H](Cc1ccccc1)C(N)=O
remaining at 1 h: 100%
